The source of these data is ChEMBL document CHEMBL1147912, “1-(1,3-Benzodioxol-5-ylmethyl)-3-[4-(1H-imidazol-1-yl)phenoxy]-piperidine analogs as potent and selective inhibitors of nitric oxide formation” (Bioorg Med Chem Lett, 2007).

Chains of the proteins cited; added tags and fusions are not shown.
UniProt P29475, whole entry, looked up: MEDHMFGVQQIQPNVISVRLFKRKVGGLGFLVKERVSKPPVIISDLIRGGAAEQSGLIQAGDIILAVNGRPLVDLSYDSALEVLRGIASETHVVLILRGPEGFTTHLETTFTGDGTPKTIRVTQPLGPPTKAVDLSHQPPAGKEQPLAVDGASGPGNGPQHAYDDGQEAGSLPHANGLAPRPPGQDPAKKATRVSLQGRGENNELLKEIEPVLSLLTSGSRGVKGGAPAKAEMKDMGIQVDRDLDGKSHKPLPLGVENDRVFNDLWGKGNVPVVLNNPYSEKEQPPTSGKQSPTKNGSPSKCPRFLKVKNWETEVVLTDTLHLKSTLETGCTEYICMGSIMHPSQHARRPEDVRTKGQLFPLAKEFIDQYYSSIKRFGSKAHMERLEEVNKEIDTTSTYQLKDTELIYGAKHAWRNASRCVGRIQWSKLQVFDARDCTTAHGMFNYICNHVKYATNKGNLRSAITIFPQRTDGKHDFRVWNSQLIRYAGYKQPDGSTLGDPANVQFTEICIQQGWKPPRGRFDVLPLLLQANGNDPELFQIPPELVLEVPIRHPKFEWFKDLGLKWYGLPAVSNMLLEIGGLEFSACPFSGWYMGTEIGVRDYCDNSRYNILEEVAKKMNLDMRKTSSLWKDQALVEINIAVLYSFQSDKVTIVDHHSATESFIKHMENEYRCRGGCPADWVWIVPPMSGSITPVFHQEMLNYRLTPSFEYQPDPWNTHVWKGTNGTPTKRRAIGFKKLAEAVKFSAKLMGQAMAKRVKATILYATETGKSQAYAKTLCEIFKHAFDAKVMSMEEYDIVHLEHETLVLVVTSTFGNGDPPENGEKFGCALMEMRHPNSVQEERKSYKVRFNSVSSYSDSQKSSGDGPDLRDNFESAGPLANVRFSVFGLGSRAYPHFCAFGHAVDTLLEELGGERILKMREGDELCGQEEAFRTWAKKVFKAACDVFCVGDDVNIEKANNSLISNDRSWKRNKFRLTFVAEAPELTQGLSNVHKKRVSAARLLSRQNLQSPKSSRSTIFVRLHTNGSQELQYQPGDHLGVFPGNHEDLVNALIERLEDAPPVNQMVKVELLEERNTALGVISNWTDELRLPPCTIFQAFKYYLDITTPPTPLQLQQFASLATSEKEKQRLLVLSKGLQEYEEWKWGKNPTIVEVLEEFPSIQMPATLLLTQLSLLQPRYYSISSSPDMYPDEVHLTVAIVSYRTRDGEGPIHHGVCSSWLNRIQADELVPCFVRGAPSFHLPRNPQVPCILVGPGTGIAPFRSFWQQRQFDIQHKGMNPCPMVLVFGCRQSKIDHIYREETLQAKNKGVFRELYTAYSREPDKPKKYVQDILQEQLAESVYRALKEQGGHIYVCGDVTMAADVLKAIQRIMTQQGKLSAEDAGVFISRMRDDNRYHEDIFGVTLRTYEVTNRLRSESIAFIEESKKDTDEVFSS
UniProt P35228, whole entry, looked up: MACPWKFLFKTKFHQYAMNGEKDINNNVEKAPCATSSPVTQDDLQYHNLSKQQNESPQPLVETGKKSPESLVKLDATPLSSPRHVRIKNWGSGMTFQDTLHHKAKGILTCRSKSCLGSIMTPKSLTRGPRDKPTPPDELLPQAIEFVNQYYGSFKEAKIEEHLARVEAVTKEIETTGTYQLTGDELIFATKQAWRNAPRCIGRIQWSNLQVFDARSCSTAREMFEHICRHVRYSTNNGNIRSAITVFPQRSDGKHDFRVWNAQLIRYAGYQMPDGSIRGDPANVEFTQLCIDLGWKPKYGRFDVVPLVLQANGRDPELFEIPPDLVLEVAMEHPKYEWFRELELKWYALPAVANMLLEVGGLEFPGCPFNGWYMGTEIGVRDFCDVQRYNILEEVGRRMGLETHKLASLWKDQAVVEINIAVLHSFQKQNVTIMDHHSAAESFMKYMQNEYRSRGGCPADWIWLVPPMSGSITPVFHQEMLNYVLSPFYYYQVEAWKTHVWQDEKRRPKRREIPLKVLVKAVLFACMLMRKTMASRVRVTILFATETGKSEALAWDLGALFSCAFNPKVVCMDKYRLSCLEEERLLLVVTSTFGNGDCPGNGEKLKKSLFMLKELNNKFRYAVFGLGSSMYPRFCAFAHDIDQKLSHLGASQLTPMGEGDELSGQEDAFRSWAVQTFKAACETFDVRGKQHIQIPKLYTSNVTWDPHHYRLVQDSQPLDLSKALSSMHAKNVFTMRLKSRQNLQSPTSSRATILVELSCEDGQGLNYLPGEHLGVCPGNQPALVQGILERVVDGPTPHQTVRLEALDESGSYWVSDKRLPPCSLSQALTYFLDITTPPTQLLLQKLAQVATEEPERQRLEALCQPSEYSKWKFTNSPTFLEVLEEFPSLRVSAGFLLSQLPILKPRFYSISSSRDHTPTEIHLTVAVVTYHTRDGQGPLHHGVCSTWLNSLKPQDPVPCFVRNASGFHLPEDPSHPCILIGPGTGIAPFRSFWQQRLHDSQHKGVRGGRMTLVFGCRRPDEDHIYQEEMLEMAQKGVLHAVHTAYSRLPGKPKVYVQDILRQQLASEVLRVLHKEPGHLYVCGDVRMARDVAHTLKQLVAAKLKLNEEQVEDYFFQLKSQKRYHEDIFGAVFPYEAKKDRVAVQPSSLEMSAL

For assay [1], the target named is Nitric oxide sythases; iNOS & nNOS (Homo sapiens) (UniProt P29475+P35228). Put plainly: Selectivity for iNOS over nNOS in tetracycline-induced system.
For assay [2], the species on record is Homo sapiens. Kind of assay: Selectivity for iNOS over eNOS in tetracycline-induced system.

SMILES strings stand for the structures. Where only a bound is given, the exact number is not on record here.

For `c1cn(-c2ccc(O[C@H]3CCCN(Cc4ccc5c(c4)OCO5)C3)cc2)cn1`, the Ratio IC50 in assay [1] was 600; in assay [2], 420. For `c1cn(-c2ccc(OCC3CCCCN3Cc3ccc4c(c3)OCO4)cc2)cn1` (stereo not given), in that order: more than 46 and more than 46. As for `c1cn(-c2ccc(OC3CCCN(Cc4ccc5c(c4)OCO5)C3)nn2)cn1` (stereo not given), the Ratio IC50 in assay [1] and in assay [2] was more than 17 each time. On to `c1cn(-c2ccc(OC3CCCN(Cc4ccc5c(c4)OCO5)C3)cc2)cn1` (stereo not given), for which the Ratio IC50 in assay [1] worked out at 350; in assay [2], 400. In the case of `c1cn(-c2ccc(OC[C@H]3CCCN3Cc3ccc4c(c3)OCO4)cc2)cn1`, in assay [1], the Ratio IC50 is more than 80.

For `c1cn(-c2ccc(NC3CCCN(Cc4ccc5c(c4)OCO5)C3)cc2)cn1` (stereo not given), the Ratio IC50 in assay [1] stood at 439.
